Reference: PubChem BioAssay AID1789 (The Scripps Research Institute Molecular Screening Center, 2009)
Only a part is listed here, and it is no random draw. Activity calls are given as the source filed them.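 Rule for the calls: active = inhibition above the screen-wide mean plus 3 SD, computed separately per campaign (cut at about 16% in these data); inactive = the rest.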

Each compound was assayed on Heat shock protein HSP 90 (rabbit reticulocyte lysate; luciferase refolding) (assay: HSP90 inhibitors, primary screen, cell lysate, luminescence (AID 1789;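 note: 0% = DMSO wells and 100% = 60 µM geldanamycin wells; inhibitors lower the luminescence because luciferase stays unfolded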)). Settings: 3 h, at 5.6 µM, active compounds read high.

Structure (SMILES) | inhibition
COc1ccccc1OP(C)(=O)Nc1c(C)cccc1C (centres undefined) | inactive: 0.95%
CN1CCCCC1COC(=O)C1(O)c2ccccc2CCc2ccccc21 (centres undefined) | inactive: 1.43%
CP(=O)(Nc1ccc(SC(F)(F)F)cc1)Oc1ccccc1 (centres undefined) | inactive: -2.73%
CCCOc1ccc(NP(C)(=O)Oc2ccc(Cl)cc2)cc1 (centres undefined) | inactive: 0.23%
O=[N+]([O-])c1cc([N+](=O)[O-])c(Nc2nnnn2CCO)c([N+](=O)[O-])c1 | inactive: -0.18%
CCOC(=O)C(CC)C1=NC(C)(C)Cc2ccccc21.O=[N+]([O-])c1cc([N+](=O)[O-])c(O)c([N+](=O)[O-])c1 (centres undefined) | inactive: 5.41%
Cc1nc2ccc3ccccc3c2s1.O=[N+]([O-])c1cc([N+](=O)[O-])c(O)c([N+](=O)[O-])c1 | inactive: 1.49%
O=[N+]([O-])c1cc([N+](=O)[O-])c(-n2nnc3ccccc32)c([N+](=O)[O-])c1 | inactive: 1.29%
Cc1ccc(C)c(NP(C)(=O)Oc2ccccc2)c1 (centres undefined) | inactive: 0.82%
CP(=O)(Nc1cccc(Br)c1)Oc1ccccc1 (centres undefined) | inactive: 1.65%
Cc1cc(C)cc(OP(C)(=O)Nc2ccccn2)c1 (centres undefined) | inactive: -0.5%
COc1ccccc1OP(C)(=O)Nc1cccc(Br)c1 (centres undefined) | inactive: 6.66%
CCOC(=O)c1ccc(NP(C)(=O)Oc2cc(C)cc(C)c2)cc1 (centres undefined) | inactive: 1.77%
Cc1cc(C)cc(OP(C)(=O)Nc2ccc(C)cc2C)c1 (centres undefined) | inactive: 0.46%
CC1=NCCc2c1[nH]c1ccccc21.O=[N+]([O-])c1cc([N+](=O)[O-])c(O)c([N+](=O)[O-])c1 | inactive: 5.12%
O=C(O)c1cccc(Nc2c([N+](=O)[O-])cc([N+](=O)[O-])cc2[N+](=O)[O-])c1 | inactive: -1.85%
COc1ccccc1OP(C)(=O)Nc1ccc(C)cc1 (centres undefined) | inactive: 3.52%
Cc1ccc(NP(C)(=O)Oc2ccccc2)c(C)c1 (centres undefined) | inactive: -1.69%
CCOC(=O)c1ccc(NP(C)(=O)Oc2ccccc2)cc1 (centres undefined) | inactive: -1.18%
Cc1cc(C)cc(OP(C)(N)=O)c1 (centres undefined) | inactive: 0.6%
COc1ccccc1OP(C)(=O)Nc1cc(Cl)ccc1C (centres undefined) | inactive: 1.81%

Structure (SMILES) | inhibition
COc1ccc(OP(C)(=O)Nc2cccc(F)c2)cc1 (centres undefined) | inactive: 2.6%
O=[N+]([O-])c1ccc2c(c1)C=Nc1ccccc1O2 | inactive: 1.16%
CC(C)(C)c1ccc(OP(C)(=O)Nc2ccc(SC(F)(F)F)cc2)cc1 (centres undefined) | inactive: 0.13%
Cc1cccc(C)c1OP(C)(N)=O (centres undefined) | inactive: -3.59%
CCN(CC)CCCOC(=O)C(O)(c1ccccc1)c1ccccc1 | inactive: -1.42%
CCOC(=O)c1ccc(NP(C)(=O)Oc2ccc(OC)cc2)cc1 (centres undefined) | inactive: -0.34%
CCOP(C)(=S)SCC(=O)NC(C)C(=O)O (centres undefined) | inactive: 5.61%
CP(=O)(Nc1ccccn1)Oc1ccc(Cl)cc1 (centres undefined) | inactive: -3.01%
Cc1cccc(C)c1OP(C)(=O)Nc1ccc(SC(F)(F)F)cc1 (centres undefined) | inactive: -1.54%
CP(=O)(Nc1ccc(SC(F)(F)F)cc1)Oc1ccc(Cl)cc1 (centres undefined) | inactive: 7.61%
CP(=O)(Oc1ccccc1)OC(c1ccccc1)C(F)(F)F (centres undefined) | inactive: 0.3%
CCc1ccc(OP(C)(=O)N2CCN(c3ccc([N+](=O)[O-])cc3)CC2)cc1 (centres undefined) | inactive: 6.88%
CP(=O)(NC(=O)Nc1ccccc1)Oc1ccccc1 (centres undefined) | inactive: -0.06%
Cc1cc(C)cc(OP(C)(=O)Nc2ccc(SC(F)(F)F)cc2)c1 (centres undefined) | inactive: 1.12%
CP(=S)(Nn1cnnc1)Oc1ccccc1 (centres undefined) | inactive: 9.09%
CP(=O)(Nc1ccccc1Br)Oc1ccccc1 (centres undefined) | inactive: 0.32%
COc1ccccc1OP(C)(=O)Nc1ccccc1 (centres undefined) | inactive: -0.03%
CCOC(=O)c1ccc(NP(C)(=O)Oc2ccc(Cl)cc2)cc1 (centres undefined) | inactive: 4.56%
CP(=O)(OC12CC3CC(CC(C3)C1)C2)OC12CC3CC(CC(C3)C1)C2 | inactive: 3.42%
CC(C)(C)c1ccc(OP(C)(=O)O)cc1 | inactive: -9.98%
COc1ccccc1OP(C)(=O)Nc1ccccc1Br (centres undefined) | inactive: -3.32%

Structure (SMILES) | inhibition
CP(=O)(Nc1ccc(Cl)cc1)Oc1ccc(F)cc1 (centres undefined) | inactive: 0.95%
CN(C)C(=O)c1c([N+](=O)[O-])cc([N+](=O)[O-])cc1[N+](=O)[O-] | inactive: 5.62%
CCN(CC)CC(O)COC(=O)C(O)(c1ccccc1)C1CCCCC1 (centres undefined) | inactive: -4.93%
COc1ccc(OP(C)(=O)Nc2ccc(Br)cc2)cc1 (centres undefined) | inactive: -3.2%
COc1ccccc1OP(C)(=O)Nc1c(C)n(C)n(-c2ccccc2)c1=O (centres undefined) | inactive: 3.92%
O=C(OCCCN1CCCC1)C(O)(c1ccccc1)C1CCCCC1 (centres undefined) | inactive: -0.82%
CP(=O)(Oc1ccccc1)N1CCOC1=O (centres undefined) | inactive: 0.81%
CCc1ccc(OP(C)(=O)Nc2cccnc2)cc1 (centres undefined) | inactive: 1.14%
O=[N+]([O-])c1cc([N+](=O)[O-])c(Nc2ccccn2)c([N+](=O)[O-])c1 | inactive: 3.38%
Cc1c(NP(C)(=O)Oc2ccc(C(C)C)cc2)c(=O)n(-c2ccccc2)n1C (centres undefined) | inactive: -0.68%
CP(=O)(Nc1ccccn1)Oc1ccccc1 (centres undefined) | inactive: -4.18%
COc1ccccc1OP(C)(=O)Nc1ccc(C)cc1C (centres undefined) | inactive: 0.77%
CCc1ccc(OP(C)(=O)O)cc1 | inactive: 2.79%
COc1ccccc1OP(C)(=O)Nc1ccc(Br)cc1 (centres undefined) | inactive: -0.71%
COc1ccc(OP(C)(=O)Nc2ccccn2)cc1 (centres undefined) | inactive: -0.87%
CN(C)CCOC(=O)C(O)(c1ccccc1)C1CCCC1 (centres undefined) | inactive: -5.05%
Cc1nc2ccc3ccccc3c2o1.O=[N+]([O-])c1cc([N+](=O)[O-])c(O)c([N+](=O)[O-])c1 | inactive: -2.53%
CP(=O)(OCCOc1ccccc1)OCCOc1ccccc1 | inactive: 1.31%
CP(=O)(Nc1ccc(Cl)cc1Cl)Oc1ccccc1 (centres undefined) | inactive: -0.1%
Cc1cc(C)cc(OP(C)(=O)Nc2cccc(C(F)(F)F)c2)c1 (centres undefined) | inactive: 4.21%
COc1ccccc1OP(C)(=O)Nc1ccc(C)c(C)c1 (centres undefined) | inactive: 0.2%

Structure (SMILES) | inhibition
COc1ccc(OP(C)(=O)Nc2ccccc2Br)cc1 (centres undefined) | inactive: 1.86%
CCN(CC)CCCOC(=O)C(O)(c1ccccc1)C1CCCCC1 (centres undefined) | inactive: 3.36%
CP(=O)(Nc1ccccc1)Oc1ccc(F)cc1 (centres undefined) | inactive: -3.28%
O=[N+]([O-])c1cc([N+](=O)[O-])c(OC2CCCCC2O)c([N+](=O)[O-])c1 (centres undefined) | inactive: 3.21%
CCCCCOc1ccc(NP(C)(=O)Oc2ccc(Cl)cc2Cl)cc1 (centres undefined) | inactive: -1.99%
CCOC(=O)c1ccc(NP(C)(=O)Oc2ccc(F)cc2)cc1 (centres undefined) | inactive: 2.39%
COc1ccc(OP(C)(=O)Nc2ccc(SC(F)(F)F)cc2)cc1 (centres undefined) | inactive: -0.67%
O=C(OC1CN2CCC1CC2)c1ccc([N+](=O)[O-])cc1 (centres undefined) | inactive: 1.19%
O=C(OCCN1CCN(CCOCc2ccccc2)CC1)C(O)(c1ccccc1)c1ccccc1 | inactive: -0.74%
CP(=O)(Nc1ccccc1F)Oc1ccccc1 (centres undefined) | inactive: -2.5%
CC(C)c1ccc(OP(C)(=O)Nc2ccc(SC(F)(F)F)cc2)cc1 (centres undefined) | inactive: -3.34%
CP(=O)(Nc1ccc2c(c1)OCCO2)Oc1ccccc1 (centres undefined) | inactive: 3.59%
Cc1ccccc1NP(C)(=O)Nc1ccccc1C | inactive: -0.19%
CP(=O)(Nc1ccc(SC(F)(F)F)cc1)Oc1ccc(F)cc1 (centres undefined) | inactive: 4.53%
CCOP(C)(=S)SCC(=O)NC(C)(CC)C(=O)O (centres undefined) | inactive: 1.06%
O=[N+]([O-])c1ccc(OP2(=O)COCCO2)cc1 (centres undefined) | inactive: -1.15%
Cc1cc(-c2cccc3ccccc23)c(C)cn1.O=[N+]([O-])c1cc([N+](=O)[O-])c(O)c([N+](=O)[O-])c1 | inactive: 0.45%
O=[N+]([O-])c1cc([N+](=O)[O-])c(NCC2CCS(=O)(=O)C2)c([N+](=O)[O-])c1 (centres undefined) | inactive: 0.98%
COc1ccc(OP(C)(=O)Nc2cccc(Br)c2)cc1 (centres undefined) | inactive: -1.77%
CN(C)CCOC(=O)C(O)(c1ccccc1)C1CCCCC1 (centres undefined) | inactive: 3.94%
COc1ccc(NP(C)(=O)Oc2ccccc2OC)cc1 (centres undefined) | inactive: 4.02%
